Consider one molecule from publication PMC10012886 (mAbs, 2023).

The assay deals with T1, histidine-tagged human PDL-2 extracellular domain (PDL2-His) (human, UniProt Q9BQ51 20-220).
T1 sequence: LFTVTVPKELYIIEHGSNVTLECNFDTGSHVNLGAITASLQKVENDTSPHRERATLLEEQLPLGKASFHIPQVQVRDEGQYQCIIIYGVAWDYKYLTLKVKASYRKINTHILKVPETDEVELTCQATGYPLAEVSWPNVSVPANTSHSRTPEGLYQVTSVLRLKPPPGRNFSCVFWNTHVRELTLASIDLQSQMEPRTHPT
The experiment in a line: ELISA.

B1: fusion protein of human Fc with human PD-1 extracellular domain (PD1-hFc) (Fc fusion)
chain: LDSPDRPWNPPTFSPALLVVTEGDNATFTCSFSNTSESFVLNWYRMSPSNQTDKLAAFPEDRSQPGQDCRFRVTQLPNGRDFHMSVVRARRNDSGTYLCGAISLAPKAQIKESLRAELRVTERRAEVPTAHPSPSPRPAGQFQTLV
As to B1, the binding result is on record as “binds”.
